US6310051A, “Use of chelating agents in the treatment of atherosclerotic conditions” (Nycomed Imaging AS, priority 1997, dated 2001)

Conditions: rat, in vivo

absorption into the blood stream at peroral administration: absorbed into the blood stream
Substance: MnDPDP
